Results published in PMC7472415 (Viruses, 2020).

Target: YFP-D/NP_TAIL, yellow fluorescent protein fused to the nucleoprotein tail of D/bovine/France/2986/20 (influenza D virus D/bovine/France/2986/2012)
Experiment: fluorescence polarisation

## human importin-α1 without its importin-β binding (IBB) domain (residues 69 to 529) (from UniProt P52292 69-529) (domain or fragment)
  pKd: 7.39

pKd: −log10 of the molar value.
